Assay results as given in ChEMBL document CHEMBL2429794, “Tuning the antibacterial activity of amphiphilic neamine derivatives and comparison to paromamine homologues” (J Med Chem, 2013).

Key:
[1] = system: Acinetobacter lwoffii; assay: Antibacterial activity against Acinetobacter lwoffii ATCC 17925 after 24 hrs by geometric microdilution method; assay type: functional
[2] = system: Escherichia coli; conditions: ATCC 25922
[3] = system: Staphylococcus aureus; conditions: ATCC 25923

GENTAMICIN
MIC [1]: 0.5 µg/mL | MIC [2]: < 0.5 µg/mL | MIC [3]: 0.5 µg/mL
